US20150218251A1 (NATIONAL CHENG KUNG UNIVERSITY, published 2015)

Key:
integrin αvβ3 = integrin αvβ3 (UniProt P06756 31-1048; P05106 27-788); assay: cell-based or functional assay
integrin αIIbβ3 = integrin αIIbβ3 (UniProt P08514 32-1039; P05106 27-788); assay: cell-based or functional assay

B1: FNIII 9-10 variant, L1408P (SEQ ID NO: 62, VRARGDNPDSSK) (designed binder)
chain: HHHHHHGLDSPTGIDFSDITANSFTVHWIAPRATITGYRIRHHPEHFSGRPREDRVPHSRNSITLTNLTPGTEYVVSIVALNGREESPPLIGQQSTVSDVPRDLEVVAATPTSLLISWDAPAVTVRYYRITYGETGGNSPVQEFTVPGSKSTATISGLKPGVDYTITVYAVRARGDNPDSSKPISINYRT
For B1, the “IC50, cell adhesion assay” value (integrin αvβ3) was about 3.71 µM, the “IC50, cell adhesion assay” value (integrin αIIbβ3) was over 1.25 µM and the “IC50, inhibition of ADP-induced platelet aggregation” value (integrin αIIbβ3) was over 21.5 µM.
